{"source": "patent US12516027B2", "about": "“Lappaconitine derivative and use thereof” (priority 2020, dated 2026)", "molecules": {"B1": {"name": "BMP2: bone morphogenic protein-2 (BMP2), positive control (protein, UniProt P12643 283-396, looked up)", "Bone morphogenetic protein 2": "QAKHKQRKRLKSSCKRHPLYVDFSDVGWNDWIVAPPGYHAFYCHGECPFPLADHLNSTNHAIVQTLVNSVNSKIPKACCVPTELSAISMLYLDENEKVVLKNYQDMVVEGCGCR"}}, "system": "Sprague Dawley (SD) rat", "test": "Animal model of bone fracture, ilium bone defect", "type": "in vivo", "conditions": "implanted in collagen sponge at bone defect site; QG3030 low, medium and high; BMP2 1 ug/10 uL", "protocol": "The ilium of a Sprague Dawley (SD) rat was subjected to drilling with a diameter of 2 mm to induce a bone defect, and QG3030 (6, 30, and 150 μg/10 μL) mixed with an excipient (collagen sponge, CollaCote®) was implanted into a bone defect site to evaluate an osteoanagenic effect (FIG. 11). In this case, the positive control was treated with bone morphogenic protein-2 (BMP2), and the negative control was treated with DMSO (Table 3).\nTo statistically quantify the osteoanagenic capacity of QG3030, a degree of osteogenesis was realized with a 3-D image, and a region of interest (ROI) was set to analyze parameters such as bone volume/total volume (BV/TV; %), trabecular thickness (Tb.Th; mm), trabecular number (Tb.N; 1/mm), and trabecular separation (Tb.Sp; mm).", "data": [{"molecule": "B1", "values": [{"measurement": "bone quality by Tb.N and Tb.Sp (other than Tb.Th) compared to DMSO-treated group", "value": "high-quality bone tissue was statistically significantly formed"}, {"measurement": "bone volume/total volume (BV/TV) compared to negative control treated with DMSO", "value": "increased to a similar level"}]}]}
